Earlier results on 1 substance are cited in EP0523085B1, “PEROXY ACID BLEACH PRECURSORS AND DETERGENT COMPOSITIONS CONTAINING THEM” (priority 1990, dated 1991).

The conditions of the data set: room temperature (20°C); cited from earlier work.

For “tetra acetyl ethylene diamine [TAED, reference compound]”, the solubility in water entry is reported as “approximately 0.2%”.
